Assay results from ChEMBL document CHEMBL4007397, “Discovery of First-in-Class, Potent, and Orally Bioavailable Embryonic Ectoderm Development (EED) Inhibitor with Robust Anticancer Efficacy” (J Med Chem, 2017).

Chains of the proteins cited; added tags and fusions are not shown.
UniProt O75530, whole entry: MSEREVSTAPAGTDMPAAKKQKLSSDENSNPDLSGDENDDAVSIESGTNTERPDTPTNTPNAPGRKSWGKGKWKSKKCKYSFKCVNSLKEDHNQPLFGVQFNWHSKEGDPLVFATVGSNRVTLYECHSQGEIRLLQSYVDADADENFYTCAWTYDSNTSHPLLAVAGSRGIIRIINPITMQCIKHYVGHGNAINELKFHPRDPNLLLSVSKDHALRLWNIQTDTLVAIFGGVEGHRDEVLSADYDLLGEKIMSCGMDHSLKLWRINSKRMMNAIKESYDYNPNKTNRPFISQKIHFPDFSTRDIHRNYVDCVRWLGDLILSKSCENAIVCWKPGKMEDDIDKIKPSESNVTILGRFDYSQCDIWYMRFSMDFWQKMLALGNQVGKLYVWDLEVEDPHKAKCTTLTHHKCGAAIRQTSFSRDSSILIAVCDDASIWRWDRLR

Target: Polycomb protein EED (Homo sapiens, UniProt O75530)

| IC50 [µM] | Structure (SMILES) |
| --- | --- |
| 0.26 | c1ccc(-c2cnc(NCc3ccco3)n3cncc23)cc1 |
| 20.5 | c1ccc(-c2cnc(NCc3ccco3)n3ccnc23)cc1 |
